We go through one substance from patent publication US8673848 (Novartis, dated 2014).

Protein sequences, listed by entry. Tags and fused reporters are not part of them. Lines headed by an entry give the natural chain unless they say otherwise; changes in a name come on top.
UniProt P35414: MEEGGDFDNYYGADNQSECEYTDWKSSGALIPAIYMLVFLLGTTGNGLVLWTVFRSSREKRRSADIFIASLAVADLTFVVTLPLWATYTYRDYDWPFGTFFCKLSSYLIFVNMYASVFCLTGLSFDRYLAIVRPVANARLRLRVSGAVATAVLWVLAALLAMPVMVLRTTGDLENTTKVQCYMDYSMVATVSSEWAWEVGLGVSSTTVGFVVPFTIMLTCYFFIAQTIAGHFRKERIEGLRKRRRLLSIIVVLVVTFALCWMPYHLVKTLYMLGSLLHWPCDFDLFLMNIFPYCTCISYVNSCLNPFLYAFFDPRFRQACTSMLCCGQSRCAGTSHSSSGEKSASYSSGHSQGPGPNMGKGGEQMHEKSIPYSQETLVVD
UniProt Q9ULZ1: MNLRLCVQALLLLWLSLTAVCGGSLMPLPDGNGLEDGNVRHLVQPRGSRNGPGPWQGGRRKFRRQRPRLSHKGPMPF

In the assay the target is human APJ receptor (hAPJ) (human) (UniProt P35414). The assay can be described thus: cell-based or functional assay.

As for “Pyr1-apelin-13 (Comparative Example) (from UniProt Q9ULZ1 65-77) (peptide)”, the hAPJ Ca2+ Flux EC50 was determined as 1.79 nM.
